Data on 1 molecule can be found in PMC4836378 (Journal of medicinal chemistry, 2016).

Sequences of proteins named here, by UniProt entry; tags and fusion partners are left off.
UniProt P13631, whole entry: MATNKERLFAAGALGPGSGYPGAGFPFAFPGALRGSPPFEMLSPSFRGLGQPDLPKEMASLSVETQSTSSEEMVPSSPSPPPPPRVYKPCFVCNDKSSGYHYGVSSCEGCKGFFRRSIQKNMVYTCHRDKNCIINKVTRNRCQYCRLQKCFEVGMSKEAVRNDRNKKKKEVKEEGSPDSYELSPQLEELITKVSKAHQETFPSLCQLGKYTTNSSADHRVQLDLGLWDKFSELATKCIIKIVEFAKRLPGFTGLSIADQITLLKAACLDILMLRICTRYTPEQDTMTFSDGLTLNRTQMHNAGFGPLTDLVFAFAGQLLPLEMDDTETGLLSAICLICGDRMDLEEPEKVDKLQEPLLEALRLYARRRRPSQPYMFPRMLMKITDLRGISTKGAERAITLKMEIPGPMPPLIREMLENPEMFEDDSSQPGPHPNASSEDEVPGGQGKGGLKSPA
UniProt P10276, whole entry: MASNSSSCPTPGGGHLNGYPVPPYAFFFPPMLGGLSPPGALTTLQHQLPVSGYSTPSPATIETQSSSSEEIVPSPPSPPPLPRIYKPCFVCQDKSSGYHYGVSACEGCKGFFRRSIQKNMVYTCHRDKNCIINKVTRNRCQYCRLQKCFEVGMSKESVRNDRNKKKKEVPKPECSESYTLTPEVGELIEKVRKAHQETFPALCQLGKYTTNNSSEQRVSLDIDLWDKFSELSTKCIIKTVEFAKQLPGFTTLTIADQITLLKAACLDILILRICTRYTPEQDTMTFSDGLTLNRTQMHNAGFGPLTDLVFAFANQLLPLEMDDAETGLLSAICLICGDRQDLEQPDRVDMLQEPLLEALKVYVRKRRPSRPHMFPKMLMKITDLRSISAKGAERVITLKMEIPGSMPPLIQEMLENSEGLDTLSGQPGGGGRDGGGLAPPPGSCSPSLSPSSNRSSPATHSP

The target in assay [1] is human RARγ (Homo sapiens, UniProt P13631). Kind of assay: Luciferase-based RARγ reporter assay. In kind it is cell-based. (In general: A reporter such as luciferase makes a cellular process visible.)
Assay [2] deals with human RARα (Homo sapiens, UniProt P10276). Kind of assay: Luciferase-based RARα reporter assay. In kind it is cell-based.

`CC1(C)CCC(C)(C)c2cc(C3(c4ccc(CCC(=O)O)cc4)SCCS3)ccc21` [Compound 30, 3-{4-[2-(5,5,8,8-Tetramethyl-5,6,7,8-tetrahydronaphthalen-2-yl)-1,3-dithiolan-2-yl]phenyl}propanoic acid]: the RARγ activation entry in assay [1] is “No measurable RARα and RARγ activation was detected”. Further, the RARα activation result in assay [2] was “No measurable RARα and RARγ activation was detected”.
